Test system: form deprivation myopia guinea pigs
Test: Sorbinil and Zopolrestat in form deprivation myopia model, Example 9
Settings: FD, subconjunctival injection 100 μl once daily for 2 weeks; Sorbinil 100 μM, Zopolrestat 1 mM

O=C(O)Cc1nn(Cc2nc3cc(C(F)(F)F)ccc3s2)c(=O)c2ccccc12 [Zopolrestat]
therapeutic effect on myopia: no therapeutic effect on myopia
